This is an account of results in PubChem BioAssay AID800 (PCMD, 2007).

The chains behind the UniProt entries cited, without tags or fusion partners. Where a name states a change or a piece, a line headed by the entry shows the natural chain unless it says otherwise.
UniProt P00748: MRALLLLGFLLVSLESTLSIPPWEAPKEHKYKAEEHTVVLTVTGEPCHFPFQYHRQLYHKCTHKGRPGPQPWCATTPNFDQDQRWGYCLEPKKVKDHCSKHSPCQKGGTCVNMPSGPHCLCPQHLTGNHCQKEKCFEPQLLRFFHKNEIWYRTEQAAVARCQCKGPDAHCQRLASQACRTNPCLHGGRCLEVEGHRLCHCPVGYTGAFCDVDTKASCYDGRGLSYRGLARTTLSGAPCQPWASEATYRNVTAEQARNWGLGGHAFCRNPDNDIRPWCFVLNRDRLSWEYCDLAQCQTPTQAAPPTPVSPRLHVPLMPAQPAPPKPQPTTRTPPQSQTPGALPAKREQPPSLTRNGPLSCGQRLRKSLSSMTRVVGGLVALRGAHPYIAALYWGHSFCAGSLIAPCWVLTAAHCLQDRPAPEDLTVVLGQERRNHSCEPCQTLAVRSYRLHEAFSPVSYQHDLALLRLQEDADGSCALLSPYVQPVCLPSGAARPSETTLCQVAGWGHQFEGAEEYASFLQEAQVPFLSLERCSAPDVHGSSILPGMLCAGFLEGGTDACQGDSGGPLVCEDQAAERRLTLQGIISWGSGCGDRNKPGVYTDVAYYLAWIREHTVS

The term inhibition denotes the drop in the measured response relative to a control, in per cent.

“And” between values parts separate entries of the source, which are not always exact repeats. Equal entries are not always repeated. The list shows a part of the results, in another mix than the full data. The source made the active and inactive calls. No stated cut-off is given here; in the data, active means inhibition above about 40%; inactive means the rest.

The target of the assay is Coagulation factor XII (Homo sapiens) (UniProt P00748). The experiment in a line: coagulation factor XIIa activity inhibition – biochemical, 1536-well, primary screen (AID 800).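 Further: 0% = enzyme with no compound and 100% = blank without enzyme.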 The note with it: purified FXIIa, Boc-QGR-AMC fluorogenic substrate, 2 h; at 5 µM; stronger effect = higher value.
Take `CCOC(=O)NC(Sc1ccccc1)C(Cl)(Cl)Cl` (stereo not given): the inhibition was inactive: 11.8%.
`Cc1ccc(NP(=O)(Oc2cccc(C)c2)Oc2cccc(C)c2)nc1`: the inhibition was inactive: 7.15%.
In the case of `c1ccc(-c2nn[nH]n2)c(-c2nn[nH]n2)c1`, the inhibition is inactive: 3.44%.
In the case of `CCNC(=S)/N=C(\N)N[N+](=O)[O-]`, the inhibition is inactive: 0.08%.
Turning to `CCC(=O)N1C2C3N(C(=O)CC)C1C1N(C(=O)CC)C(C(N1C(=O)CC)N3C(=O)CC)N2C(=O)CC`, the inhibition was inactive: 27.2%.
Under `Cc1ccc(OP(=O)(Nc2ccccn2)Oc2ccc(C)cc2)cc1` stands inactive: 4.05%; under `CC(=O)NC(SC(=S)N(CC(C)C)CC(C)C)C(Cl)(Cl)Cl` (stereo not given), inactive: 22.9%.
Then `COC(=O)c1cc2c(s1)N=C(c1ccccc1)N(C)P2(=O)N1CCOCC1` (stereo not given), with inactive: 16.4%.
Then `CN(C)C(=O)Oc1noc2ccccc12`, with inactive: 8.77%.
With `O=c1c2cc([N+](=O)[O-])ccc2[nH]c2c([N+](=O)[O-])cc([N+](=O)[O-])cc12`, the inhibition was inactive: 7.59%.
Under `Cc1ccccc1OP(=O)(Nc1ccccn1)Oc1ccccc1C` stands inactive: 11.9%.
Then `CCOc1ccc(C2=NCC(CBr)S2)cc1` (stereo not given), with inactive: 6.47%; and `O=P1(Nc2nc3ccc(Cl)cc3s2)COc2ccccc2O1` (stereo not given), with inactive: 13.9%.
Under `CC(C)(C)C(=O)NC(Sc1ccccc1)C(Cl)(Cl)Cl` (stereo not given) stands inactive: -1.24%; under `C[C@@H]1C=CCP(=O)(Oc2ccccc2)O1` (stereo not given in full), inactive: 6.4%.
As to `C[C@H]1OP(=O)(Oc2ccccc2)C[C@@H]2O[C@@H]21` (stereo not given in full), the inhibition is inactive: 7.85%.
Then `CC(=O)Nc1ccc(Oc2c([N+](=O)[O-])cc([N+](=O)[O-])cc2[N+](=O)[O-])cc1`, with inactive: 4.86%; and `CC(=O)Nc1ccc([As](=O)(O)O)c(O)c1`, with inactive: 3.65%.
Under `O=P(Nc1nccs1)(c1ccccc1)c1ccccc1` stands inactive: -3.43%; under `CC(C)C(=O)NC(Sc1ccccc1)C(Cl)(Cl)Cl` (stereo not given), inactive: 6.71%; under `c1nnnn1CCn1cnnn1`, inactive: 0.38%.
Then `C[C@H]1OP(=O)(Oc2ccccc2)[C@H](O)[C@H](O)[C@H]1N=[N+]=[N-]` (stereo not given in full), with inactive: 8.14%.
As for `O=P(Nc1nc2ccccc2s1)(c1ccccc1)c1ccccc1`, the inhibition is inactive: 0.22%.
Then `O=[As](O)(c1ccccc1)c1ccc(O)cc1`, with inactive: 3.46%; and `O=[N+]([O-])c1ncn(CCn2cnc([N+](=O)[O-])n2)n1`, with inactive: 0.53%.
Under `CC(=O)NC(SC(=S)N(C)C)C(Cl)(Cl)Cl` (stereo not given) stands inactive: 7.67%; under `O=C(OC1CN2CCC1CC2)c1cccc(Cl)c1` (stereo not given), inactive: 14.3%; under `Nc1ccc([As](=O)(O)c2ccc([N+](=O)[O-])cc2)cc1`, inactive: 3.68%.
`C(Cc1nn[nH]n1)Cc1nn[nH]n1`: the inhibition is inactive: 10%.
Consider `O=C(Nc1cc([As](=O)(O)O)ccc1O)c1ccccc1`, for which the inhibition was inactive: 4.81%.
In the case of `O=[N+]([O-])c1ncn(CCn2ncnc2[N+](=O)[O-])n1`, the inhibition is inactive: 5.59%.
As for `CC(C)(C)C(=O)NC(Sc1ccncn1)C(Cl)(Cl)Cl` (stereo not given), the inhibition was inactive: 0.69%.
Then `O=C(O)CNc1ccc([As](=O)(O)O)cc1`, with inactive: 7.32%; and `O=[N+]([O-])c1cccc(NC2=NCC(CBr)S2)c1` (stereo not given), with inactive: 8.92%; and `COc1ccc(C2=NCC(CBr)S2)cc1` (stereo not given), with inactive: 4.02%.
Turning to `O=[N+]([O-])c1cc([N+](=O)[O-])c(CCNc2ccccc2)c([N+](=O)[O-])c1`, the inhibition is inactive: 5.43%.
Under `CCc1nc2c(n1)c1c(non1O)c1c2no[n+]1[O-]` stands inactive: 28%.
Then `Cc1ccc(NP(=O)(Oc2ccccc2)Oc2ccccc2)nc1`, with inactive: -1.54%.
`CC(=O)N1C2C3N(C(C)=O)C1C1N(C(C)=O)C(C(N1C(C)=O)N3C(C)=O)N2C(C)=O`: the inhibition was inactive: 7.87%.
Under `O=[N+]([O-])c1cccc2n[nH]nc12` stands inactive: 11.6%.
Then `CCN(/C(=N/P(=O)(N1CCOCC1)N1CCOCC1)N1CCOCC1)c1ccc(OC)cc1`, with inactive: 3.3%; and `C[N+]1=C2C=CC=CC=C2SC12C([N+](=O)[O-])=CC([N+](=O)[O-])=C[C-]2[N+](=O)[O-]` (stereo not given), with inactive: 9.87%.
As for `Nc1ccc([As](=O)(O)c2ccc(N)cc2)cc1`, the inhibition was inactive: 12.3%.
As for `CC1CCN(C(=O)Oc2c(Cl)cc(Cl)c3cccnc23)CC1`, the inhibition was inactive: 13.7%.
Then `CN(C)C(=O)OCCc1n(C)cc[n+]1C`, with inactive: 0.59%; and `CC(C)=N/N=C(\N)N[N+](=O)[O-]`, with inactive: 2.82%; and `Cc1ccc(N/C(=N/P(=O)(N2CCOCC2)N2CCOCC2)N2CCOCC2)cc1`, with inactive: 10.2%.
Then `NC(=O)c1cc([N+](=O)[O-])cc([N+](=O)[O-])c1N`, with inactive: 4.99%; and `Clc1ccc(Cl)c(NC2=NCC(CBr)S2)c1` (stereo not given), with inactive: 6.45%.
Consider `CN1CCCC(OC(=O)C(c2ccccc2)c2ccccc2)C1` (stereo not given), for which the inhibition was inactive: 23.5%.
Under `Cc1ccc(OP(=O)(Nc2nccs2)Oc2ccc(C)cc2)cc1` stands inactive: 8.58%.
Regarding `COc1ccccc1OP(=O)(Nc1ccc(C)cn1)Oc1ccccc1OC`, the inhibition is inactive: 2.71%.
Then `Cc1c2non([O-])c-2c(C)[n+](=O)[n+]1[O-]`, with inactive: 25.2%.
Regarding `O=C(NC(Sc1ccncn1)C(Cl)(Cl)Cl)c1ccccc1` (stereo not given), the inhibition is inactive: -2.02%.
Then `Oc1ccccc1CNc1ccccn1`, with inactive: 15.6%; and `CC(C)CC(=O)NC(Sc1ccc(Cl)cc1)C(Cl)(Cl)Cl` (stereo not given), with inactive: 15.7%.
In the case of `Nc1cc(N)c2nonc2c1[N+](=O)[O-]`, the inhibition is inactive: 15.1%.
Then `O=P(Nc1nc2ccc(Cl)cc2s1)(c1ccccc1)c1ccccc1`, with inactive: 9.69%; and `O=C(O)c1ccccc1[As](=O)(O)O`, with inactive: 5.22%.
`CC(=O)Nc1ccc([As](=O)(O)O)cc1`: the inhibition is inactive: 12.1%.
Under `Cc1ccc(NP(=O)(Oc2ccccc2F)Oc2ccccc2F)nc1` stands inactive: 36.8%; under `CCOP(=O)(Nc1ccccc1)OCC`, inactive: 15.1% and inactive: 8.16%.
Under `Cc1cc(SC(NC(=O)c2ccc(F)cc2)C(Cl)(Cl)Cl)ncn1` (stereo not given) stands inactive: 5.6%; under `Nc1cccc2ccc([As](=O)(O)O)cc12`, inactive: 6.12%; under `CCN(N=Nc1nonc1N)c1nonc1N`, inactive: 5.25%.
